Assay [1] concerns the target T1, Double-strand break repair protein MRE11 (Homo sapiens) (UniProt P49959).
T1 sequence (whole entry): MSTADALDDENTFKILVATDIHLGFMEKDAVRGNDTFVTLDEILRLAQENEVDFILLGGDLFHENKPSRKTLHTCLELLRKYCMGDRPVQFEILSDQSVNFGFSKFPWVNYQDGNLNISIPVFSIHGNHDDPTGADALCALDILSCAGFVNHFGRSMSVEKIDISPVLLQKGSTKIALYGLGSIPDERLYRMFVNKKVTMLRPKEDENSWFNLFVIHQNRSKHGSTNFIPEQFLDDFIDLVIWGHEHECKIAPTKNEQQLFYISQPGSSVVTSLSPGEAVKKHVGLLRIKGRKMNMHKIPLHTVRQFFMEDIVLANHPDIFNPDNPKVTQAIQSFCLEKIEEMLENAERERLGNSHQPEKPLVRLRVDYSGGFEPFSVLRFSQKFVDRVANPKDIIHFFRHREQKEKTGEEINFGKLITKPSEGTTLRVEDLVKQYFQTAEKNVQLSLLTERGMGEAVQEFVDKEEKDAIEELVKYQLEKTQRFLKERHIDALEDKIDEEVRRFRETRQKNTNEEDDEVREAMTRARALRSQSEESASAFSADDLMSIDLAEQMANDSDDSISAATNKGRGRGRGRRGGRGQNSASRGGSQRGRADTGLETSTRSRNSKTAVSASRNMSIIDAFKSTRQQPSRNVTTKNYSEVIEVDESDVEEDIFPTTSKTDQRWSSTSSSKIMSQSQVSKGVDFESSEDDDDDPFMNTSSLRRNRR
Particulars: HEK293, 25 uM.

The chains behind the UniProt entries cited, without tags or fusion partners. Where a name states a change or a piece, a line headed by the entry shows the natural chain unless it says otherwise.
UniProt P54132: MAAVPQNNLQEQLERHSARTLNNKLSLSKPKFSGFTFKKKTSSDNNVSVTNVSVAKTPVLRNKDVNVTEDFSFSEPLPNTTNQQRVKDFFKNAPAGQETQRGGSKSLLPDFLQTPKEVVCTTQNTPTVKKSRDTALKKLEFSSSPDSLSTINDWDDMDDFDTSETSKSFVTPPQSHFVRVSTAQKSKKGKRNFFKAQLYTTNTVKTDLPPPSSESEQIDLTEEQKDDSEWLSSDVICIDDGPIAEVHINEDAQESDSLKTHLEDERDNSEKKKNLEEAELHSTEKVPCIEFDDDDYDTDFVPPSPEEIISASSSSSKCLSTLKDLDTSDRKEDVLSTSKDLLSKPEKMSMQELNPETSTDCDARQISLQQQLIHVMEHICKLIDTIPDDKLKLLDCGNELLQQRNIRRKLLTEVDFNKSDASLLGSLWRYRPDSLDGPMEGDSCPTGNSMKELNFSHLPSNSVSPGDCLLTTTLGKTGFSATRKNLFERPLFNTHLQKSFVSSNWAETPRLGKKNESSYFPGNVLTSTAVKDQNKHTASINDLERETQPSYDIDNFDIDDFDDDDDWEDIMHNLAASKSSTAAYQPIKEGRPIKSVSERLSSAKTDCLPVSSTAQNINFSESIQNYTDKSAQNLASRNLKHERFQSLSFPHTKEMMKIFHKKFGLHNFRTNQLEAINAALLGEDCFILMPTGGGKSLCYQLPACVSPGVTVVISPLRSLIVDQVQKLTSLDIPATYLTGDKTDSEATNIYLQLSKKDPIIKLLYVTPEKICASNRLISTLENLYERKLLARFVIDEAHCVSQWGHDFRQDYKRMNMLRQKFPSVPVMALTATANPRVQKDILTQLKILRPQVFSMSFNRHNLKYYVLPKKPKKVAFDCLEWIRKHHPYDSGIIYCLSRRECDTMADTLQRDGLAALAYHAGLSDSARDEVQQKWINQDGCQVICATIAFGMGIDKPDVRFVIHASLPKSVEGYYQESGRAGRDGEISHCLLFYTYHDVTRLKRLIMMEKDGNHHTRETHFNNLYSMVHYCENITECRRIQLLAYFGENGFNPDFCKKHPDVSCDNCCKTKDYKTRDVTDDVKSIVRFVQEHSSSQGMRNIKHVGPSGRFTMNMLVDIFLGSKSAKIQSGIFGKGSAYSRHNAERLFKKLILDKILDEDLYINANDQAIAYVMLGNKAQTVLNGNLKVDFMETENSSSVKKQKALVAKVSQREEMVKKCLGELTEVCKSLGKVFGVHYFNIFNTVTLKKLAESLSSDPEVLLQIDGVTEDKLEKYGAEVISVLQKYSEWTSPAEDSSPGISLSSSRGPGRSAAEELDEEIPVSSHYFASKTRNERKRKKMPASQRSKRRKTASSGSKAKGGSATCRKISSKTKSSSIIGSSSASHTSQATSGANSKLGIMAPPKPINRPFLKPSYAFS

The target of assay [2] is T2, RecQ-like DNA helicase BLM (Homo sapiens, UniProt P54132). As to the kind of experiment: Inhibition of BLM helicase (unknown origin) binding to DNA.
In assay [3] the target is T2, RecQ-like DNA helicase BLM. In words: Inhibition of BLM helicase (unknown origin) assessed as branch migration activity.
The target in assay [4] is DNA repair protein RAD51 homolog 1 (Homo sapiens) (UniProt Q06609). As to the kind of experiment: Inhibition of RAD51 (unknown origin) binding to ssDNA.
For assay [5] the target is unchanged. As to the kind of experiment: Binding affinity to RAD51 (unknown origin) by surface plasmon resonance method. (In general: In SPR one partner is held on a chip, and binding of the other changes the refractive index at the surface.)

For orientation: inhibition means the percentage by which the read-out fell short of the control. High values mean a strong effect, low ones a weak effect. A word on the IC50: it is the concentration that gives 50% inhibition. Usually EC50 stands for the concentration that produces a half-maximal response. A high value points to a less potent agent. Broadly, the Kd is the free concentration of one partner at which half of the binding sites on the other are occupied at equilibrium, for simple one-to-one binding. A low value points to a tighter complex.

In assay [1], `N=C1NC(=O)/C(=C/c2ccc(O)cc2)S1` showed an inhibition of 70%.

For `O=C(Nc1ccc(F)c(C(F)(F)F)c1)Nc1nnc(-c2ccncc2)s1`, the concentration for half-maximal inhibition (IC50) came out at 3 µM in assay [2] and 50 µM in assay [3].

Consider `O=C1C(Cl)=C(N2CCOCC2)C(=O)N1c1ccc(Cl)c(Cl)c1`, for which the EC50 in assay [4] came out at 5 µM. That is a single-digit micromolar value.

`O=S(=O)(O)c1cc(N=C=S)ccc1/C=C/c1ccc(N=C=S)cc1S(=O)(=O)O` gave an EC50 in assay [4] of 1 µM. Moreover, the Kd in assay [5] stood at 2 µM.

For the origin of these results see ChEMBL document CHEMBL3352588, “Targeting the homologous recombination pathway by small molecule modulators” (Bioorg Med Chem Lett, 2014).
